## Cyclic peptide permeability, from CycPeptMPDB

Data: CycPeptMPDB; original report Townsend et al. 2020, doi:10.26434/chemrxiv.13335941.v1.

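Lipid, pH, incubation time, direction and concentration are not recorded in the data file. The list need not hold all peptides of the study. Entries at the database's floor value (log10 P of -10) are not listed.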

PAMPA measures passive passage through an artificial lipid membrane.
Values are log10 P with P in cm/s, so -5 is more permeable than -7.

SMILES	PAMPA (log10 cm/s)
CC(C)C[C@@H]1NC(=O)C[C@H](Cc2ccccc2)NC(=O)[C@H](Cc2ccccc2)NC(=O)[C@H](CC(C)C)NC(=O)[C@@H]2CCCN2C(=O)C[C@H](Cc2ccccc2)NC1=O	-5.93
CCCN1CC(=O)N[C@@H](CC(C)C)C(=O)N[C@H](CC(C)C)C(=O)N2CCC[C@H]2C(=O)N(Cc2ccccc2)CC(=O)N[C@@H](Cc2ccccc2)C1=O	-5.59
CC(C)C[C@@H]1NC(=O)[C@@H](CC(C)C)NC(=O)C[C@H](Cc2ccccc2)NC(=O)[C@H](Cc2ccccc2)NC(=O)[C@H](CC(C)C)N(C)C(=O)[C@H]2CCCN2C1=O	-5.12
CC(C)C[C@H]1NC(=O)[C@H](C)N(C)C(=O)[C@@H]2CCCN2C(=O)[C@H](Cc2ccccc2)NC(=O)CN(Cc2ccccc2)C(=O)[C@@H]2CCCN2C(=O)C[C@H](Cc2ccccc2)NC1=O	-6.17
CCCN1CC(=O)N(C)[C@H](CC(C)C)C(=O)N(C)[C@@H](CC(C)C)C(=O)N2CCC[C@@H]2C(=O)N(Cc2ccccc2)CC(=O)N[C@@H](Cc2ccccc2)C(=O)N2CCC[C@@H]2C1=O	-5.10
CC(C)C[C@@H]1C(=O)N[C@@H](Cc2ccccc2)C(=O)N[C@@H](C)C(=O)N[C@H](CC(C)C)C(=O)N[C@H](CC(C)C)C(=O)N2CCC[C@@H]2C(=O)N1C	-6.91
CC(C)C[C@@H]1NC(=O)[C@@H]2CCCN2C(=O)[C@@H](CC(C)C)N(C)C(=O)[C@@H](CC(C)C)NC(=O)[C@H](C)N(C)C(=O)[C@H](Cc2ccccc2)NC1=O	-4.90
CCCN1CC(=O)N[C@@H](CC(C)C)C(=O)N[C@@H](Cc2ccccc2)CC(=O)N2CCC[C@@H]2C(=O)N(C)[C@@H](CC(C)C)C(=O)N[C@@H](Cc2ccccc2)C(=O)N2CCC[C@@H]2C1=O	-5.64
CC(C)C[C@H]1NC(=O)[C@H]2CCCN2C(=O)CN(Cc2ccccc2)C(=O)[C@H](CC(C)C)N(C)C(=O)[C@@H](C)N(C)C(=O)[C@H](Cc2ccccc2)NC1=O	-5.52
CC(C)C[C@@H]1NC(=O)[C@H](C)NC(=O)[C@H]2CCCN2C(=O)[C@H](Cc2ccccc2)NC(=O)[C@H](CC(C)C)NC(=O)[C@H]2CCCN2C(=O)[C@H](CC(C)C)NC1=O	-6.57
CC(C)C[C@@H]1NC(=O)[C@@H](CC(C)C)N(C)C(=O)[C@H](C)N(C)C(=O)[C@H]2CCCN2C(=O)[C@H](Cc2ccccc2)NC(=O)[C@@H](CC(C)C)N(C)C(=O)[C@@H]2CCCN2C1=O	-5.04
CC(C)C[C@@H]1NC(=O)C[C@H](Cc2ccccc2)NC(=O)[C@H](Cc2ccccc2)NC(=O)[C@@H](CC(C)C)NC(=O)[C@H]2CCCN2C(=O)[C@H](CC(C)C)NC1=O	-4.85
CC(C)C[C@@H]1C(=O)N[C@H](CC(C)C)C(=O)N2CCC[C@@H]2C(=O)N(Cc2ccccc2)CC(=O)N[C@@H](Cc2ccccc2)C(=O)N[C@@H](Cc2ccccc2)CC(=O)N1C	-5.48
CC(C)C[C@@H]1NC(=O)[C@@H](CC(C)C)N(C)C(=O)[C@@H](C)NC(=O)[C@H](Cc2ccccc2)NC(=O)[C@@H](CC(C)C)N(C)C(=O)[C@@H]2CCCN2C1=O	-5.30
CC(C)C[C@@H]1NC(=O)[C@@H](C)NC(=O)[C@H]2CCCN2C(=O)[C@H](Cc2ccccc2)NC(=O)[C@H](CC(C)C)N(C)C(=O)[C@@H]2CCCN2C(=O)CN(Cc2ccccc2)C1=O	-5.90
CCCN1CC(=O)N[C@H](CC(C)C)C(=O)N(C)[C@@H](CC(C)C)C(=O)N2CCC[C@H]2C(=O)N(Cc2ccccc2)CC(=O)N[C@@H](Cc2ccccc2)C(=O)N2CCC[C@H]2C1=O	-5.49
CC(C)C[C@@H]1NC(=O)[C@H]2CCCN2C(=O)CN(Cc2ccccc2)C(=O)[C@H](CC(C)C)NC(=O)[C@@H](C)N(C)C(=O)[C@H]2CCCN2C(=O)[C@H](Cc2ccccc2)NC1=O	-6.29
CC(C)C[C@@H]1NC(=O)[C@@H](C)N(C)C(=O)[C@H](Cc2ccccc2)NC(=O)CN(Cc2ccccc2)C(=O)[C@H]2CCCN2C(=O)CN(Cc2ccccc2)C1=O	-5.72
CC(C)C[C@@H]1C(=O)N[C@@H](Cc2ccccc2)C(=O)N2CCC[C@H]2C(=O)N(C)[C@H](C)C(=O)N(C)[C@@H](CC(C)C)C(=O)N(Cc2ccccc2)CC(=O)N2CCC[C@@H]2C(=O)N1C	-5.22

The 2 highest values of PAMPA among the entries above:

SMILES	PAMPA (log10 cm/s)
CC(C)C[C@@H]1NC(=O)C[C@H](Cc2ccccc2)NC(=O)[C@H](Cc2ccccc2)NC(=O)[C@@H](CC(C)C)NC(=O)[C@H]2CCCN2C(=O)[C@H](CC(C)C)NC1=O	-4.85
CC(C)C[C@@H]1NC(=O)[C@@H]2CCCN2C(=O)[C@@H](CC(C)C)N(C)C(=O)[C@@H](CC(C)C)NC(=O)[C@H](C)N(C)C(=O)[C@H](Cc2ccccc2)NC1=O	-4.90